From patent publication US20130037744A1, “CARBOXYL-FUNCTIONALIZED SILICON-CONTAINING PRECURSOR COMPOUND OF VARIOUS ORGANIC CARBOXYLIC ACIDS” (EVONIK DEGUSSA GmbH, priority 2010, published 2013) come the findings set out here.

The nature of the data set: Solubility investigation in solvent (vinyltrimethoxysilane). In kind it is physicochemical. The source says:
Solubility Investigation in Solvent: Solubility Investigation in Solvent: Solubility Investigation in Different Solvents Solubility Investigation in the Solvent Solubility Investigation in Solvent Solubility Investigation in Solvent Solubility Investigation in Solvent Solubility Investigation in Solvent Solubility Investigation in Solvent

Take “Vinylcarboxysilane from Myristic, Palmitic and Stearic Acid [Example 1.2]”: the “Solubility in vinyltrimethoxysilane (VTMO)” value is on record as below 1.0%. Under “Vinylcarboxysilane from Lauric, Myristic, and Caprylic Acid [Example 1.1]” stands above 50%.
